{"source": "PubChem BioAssay AID539", "about": "(SRMLSC, 2006)", "note": "The list shows a part of the results, in another mix than the full data. Some of these compounds have results that are not shown, active ones among them. Active and inactive are the calls of the source.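 How the source made its calls: active means top-ranked compounds by inhibition in the single 10 µM screen, taking a fixed number of the strongest; inactive means the rest, inconclusive results apart.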", "data": [{"system": "phosphomevalonate kinase (Streptococcus pneumoniae D39)", "test": "S. pneumoniae PMK inhibitors, primary screen, biochemical, mevalonate pathway, pilot trial included (AID 539);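 further: 0% = full reaction with DMSO carrier and 100% = background rate without enzyme reaction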", "settings": "purified PMK, PK/LDH-coupled NADH absorbance 340 nm; at 10 µM; hits give high values", "values": [{"smiles": "CN(C)c1cccc(C(=O)NCC2(N(C)C)CCCCC2)c1", "inhibition": "inactive: 18%"}, {"smiles": "O=C(OC1CN2CCC1CC2)C(CO)(c1ccccc1)c1ccccc1", "note": "(configuration not stated)", "inhibition": "inactive: 9%"}]}]}
